Earlier results on one substance are cited in publication PMC7933454.

This series addresses TNF (Homo sapiens) (UniProt P01375). The series is described as follows: SPR.

As a reminder, the Kd is a measure of binding affinity in units of concentration. For the substance adalimumab IgG, the Kd is 0.049 nM.
